Target: bovine chymotrypsin (Bos taurus, UniProt P00766)
Test: Inhibition of bovine chymotrypsin
Type: biochemical
Details: at maximum concentration tested; 100 ng bovine chymotrypsin; pH 10
Description: Several proteinase inhibitors were tested for their ability to inhibit the activity of the insensitive chymotrypsins. The buffer used for all assays was 500 mM CAPS, 75 mM NaCl, 2.5 mM MgCl2 at pH 10.

**Q.** How did the “% Inhibition BC” value turn out when O=S(=O)(F)Cc1ccccc1 [PMSF, phenylmethyl sulphonyl fluoride, reference compound] was run?
**A.** 100%

From patent US7462695B2, “Insect chymotrypsin and inhibitors thereof” (Hexima Limited, priority 2003, dated 2008)
